## scFv variants of Ab-91 (heavy chain) against a SARS-CoV-2 spike peptide

From the AlphaSeq antibody data of Engelhart et al. 2022 (doi:10.1038/s41597-022-01779-4), copy in the FLAb collection.

Antigen: PDVDLGDISGINAS, a 14-residue peptide of the SARS-CoV-2 spike HR2 region.

The variants keep the light chain, the linker and the frameworks of Ab-91 (scFv order VL, a 15-residue (Gly4Ser)3 linker, VH).
VL: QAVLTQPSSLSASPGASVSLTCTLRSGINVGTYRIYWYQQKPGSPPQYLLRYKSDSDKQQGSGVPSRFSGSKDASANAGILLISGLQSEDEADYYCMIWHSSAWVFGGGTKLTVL
VH: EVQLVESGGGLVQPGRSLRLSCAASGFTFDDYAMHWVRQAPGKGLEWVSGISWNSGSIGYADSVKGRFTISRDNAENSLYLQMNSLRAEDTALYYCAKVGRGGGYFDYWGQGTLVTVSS

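The starting antibody came from a phage panning campaign against this peptide. In library AAYL51, one, two or three CDR residues were substituted; doubles and triples were drawn at random. Affinity was read by AlphaSeq, a pooled yeast mating assay with surface-displayed partners. The frequency of each diploid, read from paired DNA barcodes, reflects how well the two displayed proteins bind. Each replicate has its own calibration line, from reference interactions of the BCL2 family. Each pool was mated in three replicate cultures.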

Changes read parent residue, position, new residue, counted from the first residue of the VH shown. The read-out is the apparent dissociation constant on a log10 scale (nM): the lower, the stronger. A mean of the replicates is given; it leaves out those without a signal. "no signal" means that the variant was in the library but no mating with the target was seen in any replicate; the authors take this as a sign of poor binding, and no number exists. For reference, the parent read 1.86 as the reference entry and 0.88 as a member of this library. Background: pairings of library AAYL51 with three empty control strains gave a value in 21% of cases (median 4.54, 5th percentile 3.26). Values in that range, when seen in few replicates, are hard to tell from nonspecific mating.

changes | mean, log10 nM | seen in
D30K/D31N | 0.73 | 3 of 3
G104A/Y105W | 1.22 | 3 of 3
G59T/D107V | no signal | 0 of 3
A33N/I51P/S52E | no signal | 0 of 3
I51Q/G104A/D107G | 5.20 | 1 of 3
G26A/G100I/G102C | no signal | 0 of 3
T28Y/Y32G/H35P | no signal | 0 of 3
F27E/K65W/G102Y | 4.57 | 3 of 3
S55T/V64N/Y105G | 4.07 | 1 of 3
H35K/V64I/G103R | no signal | 0 of 3
A33W/D62L/G103M | no signal | 0 of 3
K65I/G100A/Y105F | 3.09 | 2 of 3
G26H/F29C/D62G | no signal | 0 of 3
H35N/G50E/G102F | 4.71 | 2 of 3
G50C/S63F/Y108A | no signal | 0 of 3
W53H/N54Q/S57Y | 3.94 | 1 of 3
G26Y/F29T/K65M | no signal | 0 of 3
F27G/H35L/Y108M | 4.27 | 2 of 3
I51V/G59L/G100W | 5.31 | 1 of 3
N54G/Y60F/D107T | 5.34 | 3 of 3
T28V/D31S/S55L | no signal | 0 of 3
M34T/H35R/S63F | 3.57 | 2 of 3
F27Q/S52C/V99M | 4.63 | 1 of 3
I51D/S55I/G100H | no signal | 0 of 3
F27C/S55N/V99L | 5.31 | 1 of 3
G26W/A33K/G103H | no signal | 0 of 3
N54V/D62N/K65S | 5.55 | 3 of 3
N54I/S63Q/R101K | no signal | 0 of 3
F27Y/T28V | no signal | 0 of 3
M34Q/S63F/D107T | no signal | 0 of 3
G26S/D31T/G100N | 2.86 | 3 of 3
S55I/Y60P/G103Y | no signal | 0 of 3
G56A/V99C/F106M | 4.71 | 1 of 3
F29N/I51R/G103L | no signal | 0 of 3
S57K/G104S/Y108P | 4.98 | 3 of 3
F27P/S55N/V64L | 3.54 | 3 of 3
D31V/Y32I/S52T | no signal | 0 of 3
N54H/V99P/Y108P | no signal | 0 of 3
H35P/S55C/Y60G | 3.80 | 1 of 3
M34C/R101T/D107N | no signal | 0 of 3
F27S/A33M/V99M | 3.26 | 1 of 3
T28W/G56I/I58D | 2.14 | 3 of 3
D62C/G100Y | 4.33 | 2 of 3
M34C/H35V/Y105V | 5.31 | 1 of 3
S52G/S63L/R101D | 4.15 | 2 of 3
Y32W/Y60P/G104A | no signal | 0 of 3
M34L/V99S/G104T | no signal | 0 of 3
G26W/G50S/G103N | 5.16 | 1 of 3
D30K/Y32R/S57A | no signal | 0 of 3
T28R/S57F/G59Q | 5.14 | 3 of 3
M34P/H35M | 5.37 | 2 of 3
G100T/G103T | 5.18 | 3 of 3
M34K/Y60C | 4.50 | 2 of 3
D30W/R101N | 1.71 | 3 of 3
W53R/N54I/V99Y | no signal | 0 of 3
S55K/A61R/V99P | 4.22 | 2 of 3
F29N/I58K/Y108D | 3.84 | 1 of 3
G26I/G59L/G100V | 4.56 | 2 of 3
G59T/K65C/R101A | 4.91 | 1 of 3
G50R/D107Q/Y108M | 4.33 | 2 of 3
A33M/I58W/G100R | 4.72 | 1 of 3
G59F/G104S/F106K | no signal | 0 of 3

For reference, 7 entries of the list once more:

changes	mean, log10 nM	seen in
F29N/I58K/Y108D	3.84	1 of 3
S55K/A61R/V99P	4.22	2 of 3
S52G/S63L/R101D	4.15	2 of 3
G26A/G100I/G102C	no signal	0 of 3
M34Q/S63F/D107T	no signal	0 of 3
N54I/S63Q/R101K	no signal	0 of 3
T28W/G56I/I58D	2.14	3 of 3